Our source for the EC50 values is patent publication US20240239801A1, “PYRIMIDO[5,4,D]PYRIMIDINE COMPOUNDS, COMPOSITIONS COMPRISING THEM AND USES THEREOF” (Université de Montréal, priority 2021, published 2024).

For orientation: EC50 means the concentration that produces a half-maximal response.

The subject of experiment [1] is Lovo. Description: Proliferation inhibition, CellTiter-Glo. The conditions noted are these: read-out: Lovo Prolif. EC50; Table D-2; 3 days. The protocol:
(§1) All cancer cell lines (A375, A101D, A2058, RKO, HT29 SK-MEL 30, IPC298, HepG2, HCT-116, Lovo, SW620, SW480, NCI-H358, NCI-H2122, Calu-6, NCIH2087, NCIH1755, NCIH1666 and Mewo) were obtained from ATCC and cultured in RPMI-1640 medium (Gibco) supplemented with 5% heat inactivated fetal bovine serum (FBS, Wisent) at 37° C. under 5% CO2. Cells were maintained in T175 flasks (Greiner). They were passaged by removing the culture medium, washing once in 10 mL of room temperature Phosphate Buffered Saline (PBS; Wisent) and incubating at 37° C. with 2 mL of 0.05% Trypsin (Thermo-Fisher). Trypsin was then inactivated by adding complete growth medium and the cells were then replated in a T175 culture dish at the appropriate dilution. All cell lines were routinely tested for mycoplasma contamination. Tissue type and mutational status of each cell line can be found in Table B.
(§2) CellTiter-Glo® viability analysis was conducted on cells plated in […] of complete RPMI-1640 growth medium in 96-well flat-bottomed white opaque plates (Greiner or Corning) at a density indicated in Table E (for each CCL, number of cells plated per well of a 96-well plate to perform the CellTiter-Glo® cell viability assay). The cell density in cells/cm^2 would correspond to cell number divided by the area of one well of a 96-well plate (0.32 cm^2). Cells were maintained overnight at 37° C. under 5% CO2 before treatment with compounds' dilution series for 3 days.
(§3) In a dilution series 100 μL/well of test substance dilution prepared in complete RPMI-1640 growth media was added to the cells plated initially in 100 μL of growth media. The dilution series is selected so that ten concentrations cover a range from 30 μM or 10 μM to […]. If necessary (as in the case of A375 cells, which were more sensitive to the compounds) the initial concentration of 10 μM is lowered to 1 μM and further dilution is carried out accordingly. The final concentration of DMSO in the assay is set to 0.5%.
(§4) After 3 days of incubation, the growth media were removed by aspiration and 60 μL of diluted CellTiter-Glo® reagent (10 μL CellTiter-Glo® reagent+50 μL of PBS) was added to each well. Cells were allowed to lyse and to equilibrate in CellTiter-Glo® reagent by 5 min incubation on a plate shaker followed by 10 min incubation at room temperature. Luminescence signals were then acquired on a Synergy Neo2 plate reader (Biotek).
(§5) The effect of each compound dilution on the proliferation of cancer cell lines was expressed in % inhibition and calculated as follows. An internal 100% inhibition control (1 μM of trametinib; cat. No. HY-10999; MedChem Express; CAS No. 871700-17-3) was included in each plate and used as a measure of CellTiter-Glo® signal background. The value obtained for trametinib was subtracted from each data point. The average of DMSO (vehicle) controls (set as 0% inhibition) was established and used to calculate % inhibition:
(§6) The ability of each compound to inhibit proliferation was expressed as a EC50 value obtained by plotting the effect values for each data point of a dilution series and fitting the obtained curves using a log(agonist) versus response−variable slope (four parameters) function using GraphPadPrism (V7.0) or Dotmatics Screening Ultra platform.

Experiment [2] deals with Mewo. Description: Proliferation inhibition, CellTiter-Glo. The conditions noted are these: read-out: Mewo Prolif. EC50; Table D-2; 3 days. The protocol:
as §1, §2, §3, §4, §5, §6
Background: In ATP-based viability assays light output follows the ATP content of the culture.

Some results are limits rather than exact numbers.

`O=S(=O)(Nc1ccc(F)c(Nc2ncnc3cnc(-n4cnc5c(N6CCC(O)(C(F)(F)F)CC6)cccc54)nc23)c1F)c1cccc(Cl)c1Cl`: the EC50 in experiment [1] and in experiment [2] was under 300 nM throughout.
